The values below come from PubChem BioAssay AID488960 (Johns Hopkins Ion Channel Center, 2010).

By UniProt entry, the sequences of proteins in these tests, tags left out.
UniProt Q61143, whole entry: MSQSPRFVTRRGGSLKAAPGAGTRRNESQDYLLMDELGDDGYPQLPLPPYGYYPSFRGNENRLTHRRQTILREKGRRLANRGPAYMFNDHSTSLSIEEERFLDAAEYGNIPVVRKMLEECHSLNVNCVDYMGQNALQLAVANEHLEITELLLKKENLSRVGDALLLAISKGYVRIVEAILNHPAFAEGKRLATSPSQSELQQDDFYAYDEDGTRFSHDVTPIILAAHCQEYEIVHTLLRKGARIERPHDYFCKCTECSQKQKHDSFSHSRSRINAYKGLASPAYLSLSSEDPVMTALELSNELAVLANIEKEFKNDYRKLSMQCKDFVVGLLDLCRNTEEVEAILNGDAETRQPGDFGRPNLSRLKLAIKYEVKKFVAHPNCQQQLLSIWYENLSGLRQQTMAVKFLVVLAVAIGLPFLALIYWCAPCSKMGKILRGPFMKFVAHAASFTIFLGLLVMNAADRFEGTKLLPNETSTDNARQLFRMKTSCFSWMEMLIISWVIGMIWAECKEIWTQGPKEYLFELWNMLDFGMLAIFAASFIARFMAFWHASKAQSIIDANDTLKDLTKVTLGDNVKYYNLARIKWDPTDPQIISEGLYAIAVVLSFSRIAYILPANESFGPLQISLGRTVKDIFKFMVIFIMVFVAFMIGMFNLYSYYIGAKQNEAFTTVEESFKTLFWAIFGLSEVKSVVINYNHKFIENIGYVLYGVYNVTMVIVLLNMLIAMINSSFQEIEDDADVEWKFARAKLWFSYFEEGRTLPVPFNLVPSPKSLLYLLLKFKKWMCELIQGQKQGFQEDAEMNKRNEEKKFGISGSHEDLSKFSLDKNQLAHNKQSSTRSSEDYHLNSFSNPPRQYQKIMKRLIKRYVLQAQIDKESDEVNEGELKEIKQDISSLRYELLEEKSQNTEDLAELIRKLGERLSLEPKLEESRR

Only a part is listed here, and it is no random draw. Some of these compounds have results that are not shown, active ones among them. The source made the active and inactive calls.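 Rule for the calls: active = fluorescence ratio falls more than 5 SD below the full-stimulation control mean, in both duplicate runs; inactive = the rest.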

For this test, the target named is Short transient receptor potential channel 6 (Mus musculus) (UniProt Q61143). The experiment in a line: blockers of TRPC6 cation channel activity – HEK293 cells, membrane potential dye, duplicate, confirmation (AID 488960).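 Note: integrated fluorescence ratio of peak minus minimum over baseline after agonist.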 As to conditions: ACh-evoked depolarization, at 10 µM, stronger effect = higher value.
In the case of `CCN(CC)CC(C)C(C)OC(=O)C(O)(c1ccccc1)c1ccccc1` (stereo not drawn), the inhibition (as a rule, the relative decrease from the control value, in per cent) is active: 91.5%. The result for `CN1[C@@H]2CC[C@H]1CC(OC(=O)C(O)(c1ccccc1)c1ccccc1)C2` (stereo partly drawn) reads active: 93%; that for `O=C(OC1CN2CCC1CC2)C(CO)(c1ccccc1)c1ccccc1` (stereo not drawn), active: 95.4%.
